For the test, the target named is SaroL-1. Briefly: Isothermal titration calorimetry of galactosyl-ligands with SaroL-1. The class given is binding, Salpingoeca rosetta. As to conditions: ITC, 25 °C. The procedure:
ITC experiments were performed with MicroCaliTC200 (Malvern Panalytical). Experiments were carried out at 25 °C ± 0.1 °C. SaroL-1 and ligands samples were prepared in Buffer A. The ITC cell contained SaroL-1 in a concentration range from 0.05 mM to 0.16 mM. The syringe contained the ligand solutions in a concentration from 10 to 50 mM. 2 μL of ligands solutions were injected into the sample cell at intervals of 120 s while stirring at 750 rpm. Integrated heat effects were analysed by nonlinear regression using one site binding model (MicroCal PEAQ-ITC Analysis software). The experimental data were fitted to a theoretical curve, which gave the dissociation constant (Kd) and the enthalpy of binding (∆H).

The structures appear in SMILES notation.

Kd data for one compound are collected here from paper PMC9468336, “The choanoflagellate pore-forming lectin SaroL-1 punches holes in cancer cells by targeting the tumor-related glycosphingolipid Gb3” (Communications Biology, 2022).

With `OC[C@H]1O[C@H](O[C@@H]2[C@H](O)[C@@H](O)C(O)O[C@@H]2CO)[C@H](O)[C@@H](O)[C@H]1O` (stereo partly shown) [αGal1-4Gal], binding was put at a Kd of 390 ± 0.2 µM.
